Details: intravitreal 15 uM (50 uL of 360 uM) into both eyes; N=4 eyes/time-point

persistence in ocular tissues: maintained levels in the retina and choroid, time after injection: up to 1 week
Structure (SMILES): Br.COc1ccc(-c2ccc(=N)n(CCCC(=O)O)n2)cc1 [SR95531, 6-Imino-3-(4-methoxyphenyl)-1(6H)-pyridazinebutanoic acid hydrobromide]

From US20150025061A1, “GABAA RECEPTOR A[…] GANGLION CELL FUNCTION AND VISUAL ACUITY” (Allergan, Inc., priority 2013, published 2015)
